Measurements taken from patent US8278415B2, “Dimeric high affinity EGFR constructs and uses thereof” (Centocor, Inc., priority 2006, dated 2012).

Test system: A431 cells
Assay: FACS of P190-MMB constructs or cetuximab on A431 cells
Assay type: cell-based, human
Conditions: excess EGF
Excerpt: In contrast, 190-MMB as the 4316 construct, binds EGFR and the presence of excess EGF promotes its binding.

Substance: cetuximab: neutralizing anti-EGFR monoclonal antibody [reference compound]
- effect of EGF on binding to A431: reduced binding
